## AlphaSeq binding of Ab-14 light chain variants to a spike HR2 peptide

The measurements come from Li et al. 2023 (doi:10.1038/s41467-023-39022-2) through the FLAb antibody collection.

Target: peptide PDVDLGDISGINAS, taken from heptad repeat 2 (HR2) of SARS-CoV-2 spike.

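The starting antibody came from a phage panning campaign against this peptide. The variants were designed computationally from a first round of random CDR variants and then made and measured. Their group label is 14L_En_Gibbs (En: ensemble of fine-tuned language models; Gibbs: Gibbs sampling). AlphaSeq pools MATa yeast showing the antibodies with MATalpha yeast showing the peptide. Pairs that bind mate more often; barcode pairs of the diploids are counted by sequencing. Read counts were normalised to the haploid input and turned into Kd by a linear fit to BCL2-family pairs of known affinity, for each replicate. Mating was done six times.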

Parent: Ab-14, a human scFv built as VH, a (GGGGS)3 linker, VL. Only the CDRs of the light chain vary.
VH: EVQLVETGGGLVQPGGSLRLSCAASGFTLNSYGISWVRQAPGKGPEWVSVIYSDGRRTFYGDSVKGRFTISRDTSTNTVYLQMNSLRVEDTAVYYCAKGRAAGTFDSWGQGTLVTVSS
VL: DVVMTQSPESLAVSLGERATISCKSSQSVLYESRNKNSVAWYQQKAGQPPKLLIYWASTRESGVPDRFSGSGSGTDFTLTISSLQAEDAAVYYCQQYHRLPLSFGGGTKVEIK

Variants are written as CDR1, CDR2 and CDR3 of the light chain (limits as in the source). Parent: KSSQSVLYESRNKNSVA, WASTRES, QQYHRLPLS.
Values are log10 of the apparent Kd in nM; lower means stronger binding.
An entry "ND" has no value in the source: the pair was not observed among the diploids in that replicate. This suggests poor binding but is not conclusive.

{"CDR-L1": "FIEGFGEDSNRNSKNIA", "CDR-L2": "SKELRQV", "CDR-L3": "QQYDRLPLS", "log10 Kd, replicates": "0.37 / 0.66 / 0.42 / 0.12 / 0.31 / 0.46", "signal with controls": "0 of 18"}
{"CDR-L1": "KIYQVGLGSQKVDRNIA", "CDR-L2": "ETSTRCT", "CDR-L3": "QSYQRLPLS", "log10 Kd, replicates": "0.41 / 0.54 / 0.52 / 0.29 / 0.45 / 0.54", "signal with controls": "4 of 18 (3.01)"}
{"CDR-L1": "KLLDYEYGTWAMNSAIA", "CDR-L2": "NASLESD", "CDR-L3": "QQYDRLPLT", "log10 Kd, replicates": "2.68 / 1.20 / 1.21 / 2.16 / 1.82 / 1.27", "signal with controls": "0 of 18"}
{"CDR-L1": "ALTFPPESVDHHMNNIA", "CDR-L2": "STSKRCM", "CDR-L3": "QQYARLPLS", "log10 Kd, replicates": "0.30 / -0.02 / 0.20 / 0.13 / -0.03 / 0.26", "signal with controls": "1 of 18 (1.71)"}
{"CDR-L1": "QLRDDIWADGMNKQSIA", "CDR-L2": "ANEVSKD", "CDR-L3": "QQYNRLPLS", "log10 Kd, replicates": "ND / ND / 0.60 / ND / ND / ND", "signal with controls": "0 of 18"}
{"CDR-L1": "KLNKHAWDFNQTWNSVA", "CDR-L2": "DHSMRVT", "CDR-L3": "QDYIRLPLT", "log10 Kd, replicates": "ND / 2.84 / 1.74 / 1.93 / 2.60 / 2.88", "signal with controls": "0 of 18"}
{"CDR-L1": "NITGMVNSKGTTTKNIA", "CDR-L2": "EAEFRAG", "CDR-L3": "QQYSRLPLS", "log10 Kd, replicates": "0.09 / -0.16 / -0.04 / -0.22 / -0.43 / 0.05", "signal with controls": "0 of 18"}
{"CDR-L1": "QLQYAPGESLRSTQSIA", "CDR-L2": "DVNIKDM", "CDR-L3": "QQYARLPLS", "log10 Kd, replicates": "0.70 / 0.48 / 0.51 / 0.17 / 0.57 / 0.59", "signal with controls": "1 of 18 (2.32)"}
{"CDR-L1": "KLWAYLQGLESNMQNVA", "CDR-L2": "DGIYRST", "CDR-L3": "QQYDRLPLS", "log10 Kd, replicates": "1.57 / 2.28 / 1.30 / 2.36 / 1.54 / 2.24", "signal with controls": "1 of 18 (2.82)"}
{"CDR-L1": "RVRLNEGEIDMHWYNIA", "CDR-L2": "SVSIRAD", "CDR-L3": "QQYSRLPLF", "log10 Kd, replicates": "0.78 / 0.92 / 1.00 / 0.92 / 0.65 / 0.74", "signal with controls": "1 of 18 (2.55)"}
{"CDR-L1": "KLNSDSVLQWNINNSVA", "CDR-L2": "EHSEVVQ", "CDR-L3": "QQYVHLPLM", "log10 Kd, replicates": "ND / ND / ND / ND / ND / 1.27", "signal with controls": "0 of 18"}
{"CDR-L1": "RLSLEHTGYGEMMNNIA", "CDR-L2": "QGSTKQF", "CDR-L3": "QQYDRLPLH", "log10 Kd, replicates": "0.97 / 0.79 / 0.84 / 0.68 / 0.68 / 0.85", "signal with controls": "2 of 18 (2.89)"}
{"CDR-L1": "NLGFVDDNDNRMMMSVA", "CDR-L2": "DANTVGE", "CDR-L3": "QQYNRLPLA", "log10 Kd, replicates": "1.04 / 0.88 / 0.75 / 0.88 / 0.71 / 1.12", "signal with controls": "0 of 18"}
{"CDR-L1": "TMLHELIQDDPMYNNVA", "CDR-L2": "DQSLKTA", "CDR-L3": "QQYYRLPLS", "log10 Kd, replicates": "ND / ND / 1.04 / 0.65 / 1.84 / ND", "signal with controls": "2 of 18 (1.58)"}
{"CDR-L1": "HMSDSIEKMASIARNIA", "CDR-L2": "DETTTAM", "CDR-L3": "QQYYRLPLS", "log10 Kd, replicates": "0.25 / -0.03 / -0.04 / -0.23 / -0.03 / 0.10", "signal with controls": "2 of 18 (1.76)"}
{"CDR-L1": "HFQIGMNQGSSMEHNIA", "CDR-L2": "EGTYAEE", "CDR-L3": "QQYARLPLQ", "log10 Kd, replicates": "0.87 / 0.39 / 0.85 / 0.28 / 0.61 / 0.84", "signal with controls": "0 of 18"}
{"CDR-L1": "QMKDSLSQGIYRQDSVA", "CDR-L2": "STDIRVL", "CDR-L3": "QQYHHLPLS", "log10 Kd, replicates": "1.07 / 0.69 / 0.94 / 0.96 / 0.52 / 1.12", "signal with controls": "1 of 18 (1.90)"}
{"CDR-L1": "SLVSKADYMDSERNNIA", "CDR-L2": "NMDLRNE", "CDR-L3": "QQYFHLPLT", "log10 Kd, replicates": "0.64 / 0.97 / 0.85 / 0.90 / 0.63 / 0.94", "signal with controls": "1 of 18 (2.02)"}
{"CDR-L1": "RVSVFMLTDENVWYSIA", "CDR-L2": "NSAATRT", "CDR-L3": "QQYQRLPLS", "log10 Kd, replicates": "ND / ND / ND / ND / ND / ND", "signal with controls": "0 of 18"}
{"CDR-L1": "QFSMNLEIYGQEQWAVA", "CDR-L2": "MGEMRTE", "CDR-L3": "QQYHKLPLS", "log10 Kd, replicates": "ND / 1.33 / ND / ND / 1.82 / ND", "signal with controls": "0 of 18"}
{"CDR-L1": "QTTAFYQHGYDQNQAMA", "CDR-L2": "DVTMRDQ", "CDR-L3": "QQYERLPLS", "log10 Kd, replicates": "1.37 / 1.43 / 1.14 / 1.41 / 0.90 / 1.12", "signal with controls": "2 of 18 (3.19)"}
{"CDR-L1": "HVSSMDMHDGGIMHSVA", "CDR-L2": "DMKITER", "CDR-L3": "QQYMRLPLS", "log10 Kd, replicates": "0.77 / 1.09 / 0.74 / 1.25 / 0.49 / 1.01", "signal with controls": "2 of 18 (3.57)"}
{"CDR-L1": "QFSNTNMQGHAMWHNVA", "CDR-L2": "EATYAEE", "CDR-L3": "QQYARLPLQ", "log10 Kd, replicates": "1.19 / 1.46 / 1.55 / 1.32 / 1.25 / 1.51", "signal with controls": "0 of 18"}
{"CDR-L1": "MLTWGDDHETGRQNSIA", "CDR-L2": "HAHERNT", "CDR-L3": "QQYHQLPLI", "log10 Kd, replicates": "1.05 / 0.99 / 1.31 / 0.65 / 0.81 / 1.06", "signal with controls": "4 of 18 (2.76)"}
{"CDR-L1": "KMEWYSQDNRLTISAIA", "CDR-L2": "EASTIYQ", "CDR-L3": "QQYGRLPLS", "log10 Kd, replicates": "ND / ND / ND / ND / ND / ND", "signal with controls": "0 of 18"}
{"CDR-L1": "KLSMETYGLTGHASSIA", "CDR-L2": "HEEIRWA", "CDR-L3": "QQYHKLPLI", "log10 Kd, replicates": "0.64 / ND / ND / 1.70 / 0.84 / 1.84", "signal with controls": "0 of 18"}
{"CDR-L1": "KLMNSLDAFKQWEDNVA", "CDR-L2": "ETEHKVA", "CDR-L3": "QQYYHLPLT", "log10 Kd, replicates": "ND / ND / ND / ND / ND / ND", "signal with controls": "0 of 18"}
{"CDR-L1": "YMSMYTDMQQNIQCGVA", "CDR-L2": "DATTRND", "CDR-L3": "QQYQRLPLS", "log10 Kd, replicates": "1.35 / 1.38 / 0.87 / 0.95 / 1.28 / 1.26", "signal with controls": "0 of 18"}
{"CDR-L1": "QVTIISDPYGRNRNNIA", "CDR-L2": "QTSERAH", "CDR-L3": "QQYQMLPLA", "log10 Kd, replicates": "0.32 / 0.13 / 0.25 / 0.14 / 0.44 / 0.21", "signal with controls": "0 of 18"}
{"CDR-L1": "WLPMEEQGSDRGKSSVA", "CDR-L2": "DSDARMA", "CDR-L3": "QQYQRLPLS", "log10 Kd, replicates": "0.29 / 0.73 / 0.33 / -0.04 / 0.10 / 0.06", "signal with controls": "0 of 18"}
{"CDR-L1": "HLSKPWQLGHPSTNAVA", "CDR-L2": "NMDVLMT", "CDR-L3": "QQYSRLPLS", "log10 Kd, replicates": "0.64 / 1.00 / 0.97 / 1.06 / 0.89 / 0.73", "signal with controls": "1 of 18 (3.05)"}

A sequence measured in both rounds can read differently, since the two assays cover different ranges.
In the paper, a design with two or fewer of six values counts as a poor binder.
Three control strains display no target. For all light chain designs, 4% of the pairings with them gave a signal, with a median of 2.64 and one signal in twenty below 1.59, so weak values seen in few replicates may be background. For each scFv, signals with the empty controls are counted beside the result, with their mean in brackets.